Laboratory results: ChEMBL document CHEMBL2177030
Active and inactive are the calls of the source.

Key:
[1] = target: T1, Pancreatic triacylglycerol lipase (Homo sapiens) (UniProt P16233); assay: Inhibition of human recombinant pancreatic lipase expressed in Pichia pastoris at 200 molar excess compound concentration pre-incubated for 2 hrs with enzyme before substrate addition by pH-stat technique
T1 sequence (whole entry): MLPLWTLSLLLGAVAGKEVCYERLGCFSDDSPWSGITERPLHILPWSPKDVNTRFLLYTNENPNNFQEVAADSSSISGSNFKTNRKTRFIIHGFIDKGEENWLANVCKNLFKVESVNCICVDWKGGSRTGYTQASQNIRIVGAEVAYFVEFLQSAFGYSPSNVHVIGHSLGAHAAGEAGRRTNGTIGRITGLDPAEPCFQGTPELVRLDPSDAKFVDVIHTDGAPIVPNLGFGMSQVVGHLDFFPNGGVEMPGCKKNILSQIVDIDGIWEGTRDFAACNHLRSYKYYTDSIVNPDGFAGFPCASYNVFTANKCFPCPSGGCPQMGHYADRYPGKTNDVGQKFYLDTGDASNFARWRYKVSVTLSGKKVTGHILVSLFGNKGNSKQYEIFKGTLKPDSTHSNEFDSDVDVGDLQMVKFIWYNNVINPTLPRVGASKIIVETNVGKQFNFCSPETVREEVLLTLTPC

[2] = target: T2, Pancreatic lipase-related protein 2 (Cavia porcellus) (UniProt P81139); assay: Inhibition of guinea pig recombinant PLRP2 expressed in Aspergillus oryzae at 200 molar excess compound concentration pre-incubated for 2 hrs with enzyme before substrate addition by pH-stat technique
T2 sequence (whole entry): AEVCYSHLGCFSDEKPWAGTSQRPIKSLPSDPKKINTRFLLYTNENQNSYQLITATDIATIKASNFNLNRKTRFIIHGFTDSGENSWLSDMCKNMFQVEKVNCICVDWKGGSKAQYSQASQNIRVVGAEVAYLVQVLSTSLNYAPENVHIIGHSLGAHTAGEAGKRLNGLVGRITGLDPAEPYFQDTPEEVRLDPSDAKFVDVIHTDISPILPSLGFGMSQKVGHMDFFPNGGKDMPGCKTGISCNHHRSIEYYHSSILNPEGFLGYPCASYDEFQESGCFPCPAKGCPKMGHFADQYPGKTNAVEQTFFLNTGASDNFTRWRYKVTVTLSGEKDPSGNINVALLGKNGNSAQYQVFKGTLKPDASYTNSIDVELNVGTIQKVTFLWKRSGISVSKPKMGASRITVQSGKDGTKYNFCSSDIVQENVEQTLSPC

[3] = target: T3, Gastric triacylglycerol lipase (Canis lupus familiaris) (UniProt P80035); assay: Inhibition of dog recombinant gastric lipase expressed in transgenic maize at 200 molar excess compound concentration pre-incubated for 2 hrs with enzyme before substrate addition by pH-stat technique; type: single protein; settings: Stomach
T3 sequence (whole entry): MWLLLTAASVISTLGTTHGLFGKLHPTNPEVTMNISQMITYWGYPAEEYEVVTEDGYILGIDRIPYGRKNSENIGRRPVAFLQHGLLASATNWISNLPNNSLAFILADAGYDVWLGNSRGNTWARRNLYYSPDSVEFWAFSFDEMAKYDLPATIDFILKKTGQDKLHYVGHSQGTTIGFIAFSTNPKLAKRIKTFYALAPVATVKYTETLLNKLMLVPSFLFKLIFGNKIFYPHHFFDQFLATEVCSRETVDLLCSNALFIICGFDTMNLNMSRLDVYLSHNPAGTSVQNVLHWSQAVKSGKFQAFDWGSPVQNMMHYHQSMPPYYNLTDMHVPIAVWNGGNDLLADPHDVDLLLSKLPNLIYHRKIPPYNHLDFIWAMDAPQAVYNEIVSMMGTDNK

Measured: inhibition

COC(=O)C1=C(C)OP(=O)(OC)CCC1c1ccccc1 (stereo not drawn)
inactive: all assays above
